Results on one compound are retold here after ChEMBL document CHEMBL5233252, “Single and dual target inhibitors based on Bcl-2: Promising anti-tumor agents for cancer therapy” (Eur J Med Chem, 2020).

Protein sequences, listed by entry. Tags and fused reporters are not part of them.
UniProt Q07817, whole entry: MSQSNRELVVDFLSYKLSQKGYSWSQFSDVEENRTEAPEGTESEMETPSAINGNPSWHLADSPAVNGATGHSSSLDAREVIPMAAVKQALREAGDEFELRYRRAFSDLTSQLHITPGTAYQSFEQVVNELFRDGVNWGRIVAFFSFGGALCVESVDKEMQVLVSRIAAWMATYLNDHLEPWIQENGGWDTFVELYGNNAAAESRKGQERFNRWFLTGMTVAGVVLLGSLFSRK

The target of this assay is Bcl-2-like protein 1 (Homo sapiens, UniProt Q07817). Put plainly: Inhibition of BH3 peptide binding to Bcl-xL (unknown origin).

In general, IC50 refers to the midpoint of a concentration-inhibition curve. Low readings indicate inhibition by little substance, high ones a need for much substance. `Cc1cc2c(C(=O)NC[C@H](C)c3ccccc3)c(O)c(O)cc2c(O)c1-c1c(C)cc2c(C(=O)NC[C@H](C)c3ccccc3)c(O)c(O)cc2c1O` [1,1',6,6',7,7'-HEXAHYDROXY-3,3'-DIMETHYL-N5-((R)-2-PHENYLPROPYL)-N5'-((R)-2-PHENYLPROPYL)-2,2'-BINAPHTHYL-5,5'-DICARBOXAMIDE (ATROPISOMERIC MIX)] had a half-inhibitory concentration (IC50) of 0.31 µM.
